Patent US10053431B2, “Tetrahydro-benzodiazepinones” (priority 2013, dated 2018)

Protein sequences, listed by entry. Tags and fused reporters are not part of them. Chains listed by the source or under a name are the forms on record and can include a tag or linker. Residues count along the entry.
UniProt P98170, 241-356 with tags or gaps limits assumed: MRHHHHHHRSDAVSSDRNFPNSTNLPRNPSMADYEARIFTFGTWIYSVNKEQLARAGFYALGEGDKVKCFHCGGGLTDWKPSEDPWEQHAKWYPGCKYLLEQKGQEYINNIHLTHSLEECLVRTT
UniProt P98170, 124-240 with tags or gaps C202A/C213G limits assumed: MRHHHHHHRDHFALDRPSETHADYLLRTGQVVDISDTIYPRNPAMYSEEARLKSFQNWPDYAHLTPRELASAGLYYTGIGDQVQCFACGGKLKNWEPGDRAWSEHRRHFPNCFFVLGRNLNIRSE

Experiments:
BIR3 domain of XIAP = BIR3 domain of XIAP (Homo sapiens (Human), UniProt P98170); assay: TR-FRET assay for BIR3 (inhibition of binding of XIAP BIR3 domain to SMAC-derived Peptide A); conditions: read-out: IC50 BIR3
BIR2 domain of XIAP = BIR2 domain of XIAP (Homo sapiens (Human), UniProt P98170, C202A/C213G); assay: TR-FRET assay for BIR2 (inhibition of binding of XIAP BIR2 domain to SMAC-derived Peptide A); conditions: 6x His-tagged BIR2 domain (aa 124-240 of XIAP) 10 nM, Peptide A 20 nM
[1] = 6x His-tagged BIR3 domain (aa 241-356 of XIAP) 10 nM, Peptide A 20 nM, TR-FRET

Compound | IC50 (BIR3 domain of XIAP; [1]) [nM] | IC50 (BIR2 domain of XIAP) [nM] | IC50 (BIR3 domain of XIAP) [nM]
CN[C@@H](C)C(=O)N[C@H]1CN(C(=O)c2ccc(C(C)O)cc2)c2ccccc2N(Cc2c(OC)ccc3c(Br)cccc23)C1=O (mixture of isomers) [Example 94, (S)—N—{(S)-1-(5-Bromo-2-methoxy-naphthalen-1-ylmethyl)-5-[4-(1-hydroxy-ethyl)-benzoyl]-2-oxo-2,3,4,5-tetrahydro-1H-benzo[b][1,4]diazepin-3-yl}-2-methylamino-propionamide, mixture of diastereomers] | 46600 | 9 | 
CN[C@@H](C)C(=O)N[C@H]1CN(C(C)=O)c2ccccc2N(Cc2c(C)ccc3ccccc23)C1=O [Example 14, (S)—N—[(S)-5-acetyl-1-(2-methyl-naphthalen-1-ylmethyl)-2-oxo-2,3,4,5-tetrahydro-1H-benzo[b][1,4]diazepin-3-yl]-2-methylamino-propionamide hydrochloride] |  | 244 | > 54800
CN[C@@H](C)C(=O)N[C@H]1CN(C(=O)CCCC(=O)O)c2ccccc2N(Cc2c(C)ccc3ccccc23)C1=O [Example 15, 5-[(S)-3-((S)-2-Methylamino-propionylamino)-5-(2-methyl-naphthalen-1-ylmethyl)-4-oxo-2,3,4,5-tetrahydro-benzo[b][1,4]diazepin-1-yl]-5-oxo-pentanoic acid hydrochloride] |  | 76 | > 54800
CN[C@@H](C)C(=O)N[C@H]1CN(C(=O)c2ccc(C(C)=O)cc2)c2ccccc2N(Cc2c(OC)ccc3cc(C(=O)NO)ccc23)C1=O [Example 45, 5-(((S)-5-(4-acetylbenzoyl)-3-((S)-2-(methylamino)propanamido)-2-oxo-2,3,4,5-tetrahydro-1H-benzo[b][1,4]diazepin-1-yl)methyl)-N-hydroxy-6-methoxy-2-naphthamide 2,2,2-trifluoroacetate] |  | 16 | 29900
CN[C@@H](C)C(=O)N[C@H]1CN(C(=O)CCCN)c2ccccc2N(Cc2c(OC)ccc3cc(C(=O)O)ccc23)C1=O [Example 50, 5-(((S)-5-(4-aminobutanoyl)-3-((S)-2-(methylamino)propanamido)-2-oxo-2,3,4,5-tetrahydro-1H-benzo[b][1,4]diazepin-1-yl)methyl)-6-methoxy-2-naphthoic acid hydrochloride] |  | 13 | 18500
CN[C@@H](C)C(=O)N[C@H]1CN(C(=O)CCCCN)c2ccccc2N(Cc2c(OC)ccc3cc(C(=O)OC)ccc23)C1=O [Example 52, 5-[(S)-5-(5-amino-pentanoyl)-3-((S)-2-methylamino-propionylamino)-2-oxo-2,3,4,5-tetrahydro-benzo[b][1,4]diazepin-1-ylmethyl]-6-methoxy-naphthalene-2-carboxylic acid methyl ester hydrochloride] |  | 47 | > 54800
CN[C@@H](C)C(=O)N[C@H]1CN(C(=O)CCCCN)c2ccccc2N(Cc2c(OC)ccc3cc(C(=O)O)ccc23)C1=O [Example 53, 5-(((S)-5-(5-aminopentanoyl)-3-((S)-2-(methylamino)propanamido)-2-oxo-2,3,4,5-tetrahydro-1H-benzo[b][1,4]diazepin-1-yl)methyl)-6-methoxy-2-naphthoic acid hydrochloride] |  | 7 | 18600
CN[C@@H](C)C(=O)N[C@H]1CN(C(=O)c2ccc(N)cc2)c2ccccc2N(Cc2c(OC)ccc3cc(C(=O)OC)ccc23)C1=O [Example 56, 5-[(S)-5-(4-Amino-benzoyl)-3-((S)-2-methylamino-propionylamino)-2-oxo-2,3,4,5-tetrahydro-benzo[b][1,4]diazepin-1-ylmethyl]-6-methoxy-naphthalene-2-carboxylic acid methyl ester hydrochloride] |  | 10 | 38100
CN[C@@H](C)C(=O)N[C@H]1CN2CCCNC(=O)c3ccc4c(c(OC)ccc4c3)CN(C1=O)c1ccccc12 [Example 58, Cyclic-5-[(S)-5-(3-amino-propyl)-3-((S)-2-methylamino-propionylamino)-2-oxo-2,3,4,5-tetrahydro-benzo[b][1,4]diazepin-1-ylmethyl]-6-methoxy-naphthalene-2-carboxylic amide hydrochloride] | 19000 | 358 | 
CC(=O)c1ccc(C(=O)N2C[C@H](NC(=O)[C@H](C)N)C(=O)N(Cc3c(C)ccc4ccccc34)c3ccccc32)cc1 [Example 64, (S)—N—((S)-5-(4-acetylbenzoyl)-1-((2-methylnaphthalen-1-yl)methyl)-2-oxo-2,3,4,5-tetrahydro-1H-benzo[b][1,4]diazepin-3-yl)-2-aminopropanamide hydrochloride] |  |  | > 54800
CN[C@@H](C)C(=O)N[C@H]1CN(C(=O)c2ccc([N+](=O)[O-])cc2)c2ccccc2N(Cc2c(C)ccc3ccccc23)C1=O [Example 66, (2S)-2-(methylamino)-N-[(3S)-5-[(2-methyl-1-naphthyl)methyl]-1-(4-nitrobenzoyl)-4-oxo-2,3-dihydro-1,5-benzodiazepin-3-yl]propanamide hydrochloride] |  | 38 | 48300
CN[C@@H](C)C(=O)N[C@H]1CN(C(=O)c2ccc(C(C)=O)cc2)c2ccccc2N(Cc2c(OCC(F)(F)F)ccc3ccccc23)C1=O [Example 69a, (S)—N—((S)-5-(4-Acetylbenzoyl)-2-oxo-1-((2-(2,2,2-trifluoroethoxy)naphthalen-1-yl)methyl)-2,3,4,5-tetrahydro-1H-benzo[b][1,4]diazepin-3-yl)-2-(methylamino)propanamide hydrochloride] |  | 32 | 47000
[2H]C([2H])([2H])Oc1ccc2cc(Br)ccc2c1CN1C(=O)[C@@H](NC(=O)[C@H](C)NC)CN(C(=O)c2ccc(C#N)cc2)c2ccccc21 [Example 84, (2S)—N-[(3S)-5-[[6-bromo-2-(trideuteriomethoxy)-1-naphthyl]methyl]-1-(4-cyanobenzoyl)-4-oxo-2,3-dihydro-1,5-benzodiazepin-3-yl]-2-(methylamino)propanamide hydrochloride] |  | 10 | 
CN[C@@H](C)C(=O)N[C@H]1CN(C(=O)c2ccc(Cl)cc2)c2ccccc2N(Cc2c(C)ccc3ccccc23)C1=O [Example 96f] |  | 20 | 
CN[C@@H](C)C(=O)N[C@H]1CN(C(=O)CS(C)(=O)=O)c2ccccc2N(Cc2nn(-c3ccccc3C#N)c3ccccc23)C1=O [Example 159, (S)-N-((S)-1-((1-(2-cyanophenyl)-1H-indazol-3-yl)methyl)-5-(2-(methylsulfonyl)acetyl)-2-oxo-2,3,4,5-tetrahydro-1H-benzo[b][1,4]diazepin-3-yl)-2-(methylamino)propanamide hydrochloride] |  | 41.3 | 

Second part, led by results:

IC50 (BIR3 domain of XIAP; [1]) [nM] | Compound | IC50 (BIR2 domain of XIAP) [nM] | IC50 (BIR3 domain of XIAP) [nM]
> 54800 | CN[C@@H](C)C(=O)N[C@H]1CN(C(=O)CCCC(C)=O)c2ccccc2N(Cc2c(C)ccc3ccccc23)C1=O [Example 13d] | 175 | 
46600 | CN[C@@H](C)C(=O)N[C@H]1CN(C(=O)c2ccc(C(C)=O)cc2)c2ccccc2N(Cc2c(OC(F)F)ccc3ccccc23)C1=O [Example 69b] | 26 | 
> 54800 | CN[C@@H](C)C(=O)N[C@H]1CN(C(=O)c2ccc(C(C)=O)cc2)c2ccccc2N(Cc2cc(=O)oc3cc(OC)ccc23)C1=O [Example 69c] | 341 | 
> 54800 | CN[C@@H](C)C(=O)N[C@H]1CN(C(=O)c2ccc(C(C)=O)cc2)c2ccccc2N(Cc2noc3ccccc23)C1=O [Example 69d] | 12 | 
24600 | CN[C@@H](C)C(=O)N[C@H]1CN(C(=O)c2cccc(N)c2)c2ccccc2N(Cc2c(C)ccc3ccccc23)C1=O [Example 96j] |  | 

Counter-ions that a name gives are not always drawn. Like-named read-outs stand apart in the source and are kept apart here.
